From patent US20060122106A1, “Prevention and/or treatment of inflammatory bowel disease using pyy or agonists thereof” (Amylin Pharmaceuticals, Inc, priority 2002, published 2006)

System: rat model of chronic colonic inflammation (colitis induced by TNBS)
Test: TNBS hapten-induced colitis model of inflammatory bowel disease (Example 1)
Assay type: in vivo
Conditions: TNBS colitis rats, excised spleen four days after induction (FIG. 3)
Description: Animal preparation: 10-11 weeks old male HSD rats, ranging 250-300 grams, were housed in a 12:12 light:dark cycle, and allowed ad libitum access to a standard rodent diet (Teklad L M 485, Madison, Wis.) and water. The animals were fasted for 24 hours before the experiment. Procedure: A simple and reproducible rat model of chronic colonic inflammation has been previously described by Morris G P, et al., “Hapten-induced model of chronic inflammation and ulceration in the rat colon.” Gastroenterology. 1989; 96:795-803. […] Rats were anesthetized with 3% isofluorane and placed on a regulated heating pad set at 37° C. A gavage needle was inserted rectally into the colon 7 cm. The hapten trinitrobenzenesulfonic acid (TNBS) dissolved in 50% ethanol (v/v) was delivered into the lumen of the colon through the gavage needle at a dose of 30 mg/kg, in a total volume of 0.4-0.6 mL, as described in Mazelin, supra. Control groups received saline solution (NaCl 0.9%) intracolonically. Four days after induction of colitis, the colon was resected from anesthetized rats, which were then euthanized by decapitation. Weights of excised colon and spleen were measured, and the colons photographed for scoring of gross morphologic damage according to Table 1 before division into 3 parts. The segment of colon 1 cm from the cecum was fixed in 10% formalin. Other segments were immediately frozen on dry ice. […]

With CC[C@H](C)[C@H](N)C(=O)N[C@@H](CCCCN)C(=O)N1CCC[C@H]1C(=O)N[C@@H](CCC(=O)O)C(=O)N[C@@H](C)C(=O)N1CCC[C@H]1C(=O)NCC(=O)N[C@@H](CCC(=O)O)C(=O)N[C@@H](CC(=O)O)C(=O)N[C@@H](C)C(=O)N[C@@H](CO)C(=O)N1CCC[C@H]1C(=O)N[C@@H](CCC(=O)O)C(=O)N[C@@H](CCC(=O)O)C(=O)N[C@@H](CC(C)C)C(=O)N[C@@H](CC(N)=O)C(=O)N[C@@H](CCCN=C(N)N)C(=O)N[C@@H](Cc1ccc(O)cc1)C(=O)N[C@@H](Cc1ccc(O)cc1)C(=O)N[C@@H](C)C(=O)N[C@@H](CO)C(=O)N[C@@H](CC(C)C)C(=O)N[C@@H](CCCN=C(N)N)C(=O)N[C@@H](Cc1cnc[nH]1)C(=O)N[C@@H](Cc1ccc(O)cc1)C(=O)N[C@@H](CC(C)C)C(=O)N[C@@H](CC(N)=O)C(=O)N[C@@H](CC(C)C)C(=O)N[C@H](C(=O)N[C@H](C(=O)N[C@@H](CCCN=C(N)N)C(=O)N[C@@H](CCC(N)=O)C(=O)N[C@@H](CCCN=C(N)N)C(=O)N[C@@H](Cc1ccc(O)cc1)C(N)=O)[C@@H](C)O)C(C)C [PYY[3-36]] the “spleen weight (systemic immune suppression)” value was “did not decrease”.
